Measured values: patent EP1137644B9, “BENZOFURAN DERIVATIVES, THEIR PREPARATION AND USE” (H. Lundbeck A/S, priority 1998, dated 2000)

Test system: serotonin reuptake
Test: Inhibition of 3H-5-HT uptake into rat brain synaptosomes
Format: biochemical
Conditions: ^3H-5-HT accumulation into whole rat brain synaptosomes
Description: The compounds of the invention have also been tested for their effect on re-uptake of serotonin in the following test:
Inhibition of ^3H-5-HT Uptake Into Rat Brain Synaptosomes
Using this method, the ability of drugs to inhibit the accumulation of ^3H-5-HT into whole rat brain synaptosomes is determined in vitro. The assay was performed as described by Hyttel, J., Psychopharmacology 1978, 60, 13.

IC50: 0.29 nM
SMILES: Fc1ccc([C@@H]2CCNC[C@H]2COc2ccc3c(c2)OCO3)cc1 [Paroxetine, reference compound]
